Our source for the Ki values is patent publication US5686418A, “Prolonging survival of transplanted pancreatic cells” (Biomeasure Incorporated, priority 1996, dated 1997).

Protein sequences, listed by entry. Tags and fused reporters are not part of them. Lines headed by an entry give the natural chain unless they say otherwise; changes in a name come on top.
UniProt P31391: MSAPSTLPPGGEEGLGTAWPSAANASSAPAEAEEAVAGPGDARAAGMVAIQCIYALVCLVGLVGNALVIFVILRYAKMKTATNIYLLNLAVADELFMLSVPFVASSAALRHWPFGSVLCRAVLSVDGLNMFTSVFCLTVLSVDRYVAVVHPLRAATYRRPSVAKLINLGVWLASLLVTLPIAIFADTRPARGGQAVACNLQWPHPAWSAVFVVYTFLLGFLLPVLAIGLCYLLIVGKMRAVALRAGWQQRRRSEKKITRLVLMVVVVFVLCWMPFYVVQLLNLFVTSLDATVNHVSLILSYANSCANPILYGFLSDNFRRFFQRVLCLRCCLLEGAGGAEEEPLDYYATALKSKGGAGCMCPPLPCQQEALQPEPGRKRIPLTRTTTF

The target of the assay is human SSTR-4 (Homo sapiens, UniProt P31391). The assay can be described thus: Somatostatin receptor binding assay, hSSTR-4. The source says: The human SSTR-1, SSTR-2, SSTR-3, SSTR-4, and SSTR-5 cDNA clones have been described (SSTR-1 and SSTR-2 in Yamada, Y., et al., Proc. Natl. Acad. Sci. USA., 89:251-255 (1992); SSTR-3 in Yamade, et al., Mol. Endocrinol. 6:2136-2142 (1993); and SSTR-4 and SSTR-5 in Yamada, et al., Biochem. Biophys. Res. Commun. 195:844-852 (1993)) and are also available from American Type Culture Collection (ATCC, Rockville, Md.) (ATCC Nos. 79044 (SSTR-1), 79046 (SSTR-2), and 79048 (SSTR-3)). […] Restriction endonucleases are available from New England Biolabs (Beverly, Mass.). This cDNA fragment was inserted into the mammalian expression vector, pCMV (Russell, D., et al., J. Biol. Chem., 264:8222-8229 (1989)), using standard molecular biology techniques (see e.g., Maniatis, T., et al., Molecular Cloning--A Laboratory Manual, Cold Spring Harbor Laboratory, 1982) to produce the expression plasmid, pCMV-human SSTR-1 through pCMV-human SSTR-5. Other mammalian expression vectors include pcDNA1/Amp (Invitrogen, Sandlesy, Calif.). The expression plasmids were introduced into the suitable bacterial host, E. Coli HB101 (Stratagene, La Jolla, Calif.) and plasmid DNAs, for transfection, were prepared on Cesium Chloride gradients.
CHO-K1 (ovary, Chinese hamster) cells were obtained from ATCC (ATCC No. CCL 61). […]

What is called Ki is the dissociation constant of the complex between target and ligand, obtained from inhibition or displacement. Read a low Ki as higher affinity. `C[C@@H](O)[C@@H]1NC(=O)[C@H](CCCCN)NC(=O)[C@@H](Cc2c[nH]c3ccccc23)NC(=O)[C@H](Cc2ccccc2)NC(=O)[C@H](Cc2ccccc2)NC(=O)[C@@H](N)CSSC[C@@H](C(N)=O)NC(=O)[C@H](Cc2ccccc2)NC1=O` [BM-23268, H-Cys-Phe-Phe-D-Trp-Lys-Thr-Phe-Cys-NH2] displayed a Ki of 0.02 µM. This lies in the double-digit nanomolar range.
